In publication PMC3559007 (Neuron, 2013):

Experiments:
[1] = molecular target: WT-WT linked Hv1 dimers (Homo sapiens, UniProt Q96D96); settings: 40 µM 2GBI, +120 mV
[2] = molecular target: T1, Hv1 F150A (Homo sapiens, UniProt Q96D96, F150A); experiment: Inside-out patch clamp, inhibition of Hv1 F150A mutant; type: cell-based
T1 sequence (Q96D96 1-273 F150A): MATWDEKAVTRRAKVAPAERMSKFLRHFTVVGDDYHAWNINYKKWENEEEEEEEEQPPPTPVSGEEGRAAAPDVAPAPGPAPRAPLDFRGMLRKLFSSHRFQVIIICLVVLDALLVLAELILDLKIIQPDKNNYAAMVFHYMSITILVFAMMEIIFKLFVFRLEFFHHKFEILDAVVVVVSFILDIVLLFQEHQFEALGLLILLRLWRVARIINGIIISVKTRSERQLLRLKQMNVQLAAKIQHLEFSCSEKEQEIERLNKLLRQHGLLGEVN

[3] = molecular target: T2, Hv1 F150C (Homo sapiens, UniProt Q96D96, F150C); experiment: Inside-out patch clamp, inhibition of Hv1 F150C mutant; type: cell-based
T2 sequence (Q96D96 1-273 F150C): T1 sequence (Q96D96 1-273 F150A) with A150C

[4] = molecular target: Hv1 F150W (Homo sapiens, UniProt Q96D96, F150W)

N=C(N)Nc1nc2ccccc2[nH]1 [Compound 7, 2-guanidinobenzimidazole]
Inhibition of the current [1]: 50% | Difference in binding affinity between F150A and wild type channels [2]: large difference | Change in affinity for blocker, F150C vs wild type [3]: increased the affinity for the blocker, but to a lesser extent | Dose dependence of block, F150W vs wild type [4]: very similar to the wild type channel

Changes are numbered by the printed parent chain.
